A short description of the test: reduced OD of T4-infected AddAB+ E. coli – absorbance, E. coli V3065, T4 phage, triplicate, AddAB inhibitor project, confirmation (AID 488942).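 Note: higher means less bacterial growth since AddAB block lets phage replicate.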 The settings on record: E. coli V3065 expressing H. pylori AddAB, at 11.9 µM, active compounds read high, T4 phage with gene 2 nonsense mutations.

What is called inhibition is the percentage by which the read-out fell short of the control.

SMILES strings stand for the structures. This is a selection; strong and weak results do not stand in their true shares. Active and inactive are the calls of the source.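 Rule for the calls: active = mean inhibition above a set limit taken from the earlier primary screen (cut at about 13% in these data); inactive = the rest.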

In the case of `COc1ccc(C[C@H](C)NC[C@@H](O)c2ccc(O)c(NC=O)c2)cc1`, the inhibition is active: 98.8%.
